Measured values published in PubChem BioAssay AID2597 (National Center for Advancing Translational Sciences (NCATS), 2010).
This is a selection; strong and weak results do not stand in their true shares. Results filed as inconclusive are left out. Active and inactive are the calls of the source. Calls follow the shape of the dose curve; as a rule, active = well fitted curve in the direction sought with a large enough effect; inconclusive = small, poorly fitted or top-dose-only effect, or effect the other way, or another doubt; inactive = no such curve, though single readings can be large or run the other way.

Protein sequences, listed by entry. Tags and fused reporters are not part of them. Lines headed by an entry give the natural chain unless they say otherwise; changes in a name come on top.
UniProt P04062: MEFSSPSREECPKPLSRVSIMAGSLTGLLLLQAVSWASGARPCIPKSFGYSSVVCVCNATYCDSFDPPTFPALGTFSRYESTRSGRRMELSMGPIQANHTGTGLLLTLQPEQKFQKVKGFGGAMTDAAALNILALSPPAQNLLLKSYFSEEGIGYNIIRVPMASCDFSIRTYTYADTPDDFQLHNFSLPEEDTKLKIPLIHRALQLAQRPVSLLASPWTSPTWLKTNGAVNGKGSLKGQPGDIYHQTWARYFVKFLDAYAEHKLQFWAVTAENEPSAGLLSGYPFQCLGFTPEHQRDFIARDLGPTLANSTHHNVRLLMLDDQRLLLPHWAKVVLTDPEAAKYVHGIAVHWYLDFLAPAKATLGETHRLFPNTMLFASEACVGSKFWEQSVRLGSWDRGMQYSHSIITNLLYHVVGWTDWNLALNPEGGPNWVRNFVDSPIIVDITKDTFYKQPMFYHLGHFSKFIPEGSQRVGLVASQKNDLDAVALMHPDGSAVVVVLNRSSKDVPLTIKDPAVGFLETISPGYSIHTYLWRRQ

biological target: Lysosomal acid glucosylceramidase (Homo sapiens) (UniProt P04062); assay: qHTS Assay for Inhibitors and Activators of N370S glucocerebrosidase as a Potential Chaperone Treatment of Gaucher Disease: Purified N370S Glucocerebrosidase; conditions: purified N370S GC, 4-MU-glucoside fluorescence, 40 min
Text: NIH Chemical Genomics Center [NCGC] NIH Molecular Libraries Probe Production Centers Network [MLPCN] MLPCN Grant: MH086442-01 Assay Submitter (PI): Wei Zheng Glucocerebrosidase (GC) catalyzes the hydrolysis of beta-glucocerebroside to glucose and ceramide in lysosomes. Mutations in the glucocerebrosidase gene result in Gaucher disease, an autosomal recessive lysosomal storage disorder. Many of the mutations encountered in patients with Gaucher disease are missense alterations that may cause misfolding, decreased stability and/or mistrafficking of this lysosomal protein. […] These inhibitors include iminosugar analogs and three non-iminosugar inhibitors identified from a previous HTS of 62,000 compounds with the wild type recombinant enzyme. However, the enhancement of enzyme activity by the chaperone action of an enzyme inhibitor must be balanced against the direct inhibition of the enzyme. An enzyme activator could also function as a chaperone by binding to the enzyme and helping to correct its misfolding and mistrafficking. While activators for GC have not yet been identified, they may have better therapeutic potential than inhibitors. Therefore the discovery and development of chemical activators may provide a new strategy for the chaperone therapy. We have optimized a new assay using N370S mutant GC derived from the spleen of a Gaucher patient. […]
NCGC Assay Protocol Summary: This is a fluorogenic enzyme assay with 4-methylumbelliferyl-beta-D-glucopyranoside as the substrate and purified N370S glucocerebrosidase as the enzyme preparation. Upon the hydrolysis of this fluorogenic substrate, the resulting product, […] which can be detected by a standard fluorescence plate reader. […] The AC50 values were determined from concentration-response data modeled with the standard Hill equation. […] (5) Add 2 ul stop solution (1M NaOH and 1M Glycine mixture, pH 10) (6) Detect the assay plate in a ViewLux plate reader (PerkinElmer) with Ex=365 nm and Em=440nm. […]

Potency, active:
COc1ccc(Cl)cc1Nc1nc(NCCO)nc(N2CCCC2)n1 11200 nM
Cc1cc(N2CCOCC2)nc2ccc(NC(=O)C3CCCCC3)cc12 562 nM
CCc1nnc(NC(=O)c2ccc(NS(=O)(=O)c3ccccc3)cc2)s1 1580 nM
